Reference: patent US7276480B1, “Prevention and reduction of blood loss” (Dyax Corp., priority 2005, dated 2007)

Biological target: T1, porcine pancreatic kallikrein (Sus scrofa, UniProt P00752)
T1 construct: from tissue
T1 sequence (P00752 8-246): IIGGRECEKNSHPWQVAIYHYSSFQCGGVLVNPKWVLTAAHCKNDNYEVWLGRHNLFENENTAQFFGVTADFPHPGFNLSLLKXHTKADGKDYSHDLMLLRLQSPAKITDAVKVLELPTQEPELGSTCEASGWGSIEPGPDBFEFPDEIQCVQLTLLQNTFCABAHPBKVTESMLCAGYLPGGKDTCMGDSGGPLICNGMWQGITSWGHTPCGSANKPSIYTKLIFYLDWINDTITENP
Experiment: Affinity (Ki,app) for plasma proteases, Table 1
Assay type: biochemical
Conditions: read-out: Ki,app

Ki: 0.55 nM
Substance: aprotinin
